Laboratory results published in publication PMC11321638 (Advanced Science, 2024).

Experiments:
chymotrypsin = assay: protease hydrolysis test, chymotrypsin; conditions: 1 mg/mL in PBS with calcium ions, 0.5 mg/ml protease, 0 min-24 h, residual peptide by HPLC; listed as RSI pep
trypsin = assay: protease hydrolysis test, trypsin; conditions: 1 mg/mL in PBS with calcium ions, 0.5 mg/ml protease, 0 min-24 h, residual peptide by HPLC; listed as RSI pep

For `CSCC[C@H](NC(=O)[C@H](CCC(=O)O)NC(=O)[C@H](CCC(=O)O)NC(=O)[C@H](CC(C)C)NC(=O)[C@H](C)NC(=O)[C@H](CC(N)=O)NC(=O)[C@H](CCCNC(=N)N)NC(=O)[C@H](CCSC)NC(=O)[C@H](Cc1ccccc1)NC(=O)[C@H](CCC(=O)O)NC(=O)[C@@H](N)CO)C(=O)N[C@@H](CC(C)C)C(=O)N[C@@H](CCCNC(=N)N)C(=O)N[C@@H](CCCNC(=N)N)C(=O)N[C@@H](C)C(N)=O` [RSIpep], the t1/2 with chymotrypsin (chymotrypsin) was “less than 1 h” and the t1/2 with trypsin (trypsin) was “less than 1 h”.
